Shown are actives, neighbours in structure and some others; about 1.7% of the full set was active somewhere.
PTHR1 ag: agonists of human PTHR1 parathyroid hormone receptor; HEK293 GP2 PTHR1 cells, GloSensor cAMP luminescence, 1 h; Potency, µM (titrated, usually from 115 µM), hits mostly activators; actives 0.075% (n = 410,000); AID 743266; also: nearly all actives have a fitted effect of over 55% in size
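HEK-293-derived GP2 cells expressing PTHR1 and a GloSensor cAMP reporter, 3,000/well, plated overnight, given luciferin plus IBMX (each 0.5 mM as added) for 1 h at 37 °C, then compound for 1 h at 37 °C. Luminescence was read after 15 min at room temperature.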
Pin1 inh: inhibitors of human Pin1. Q13526. Pin1 FP peptide displacement, HiFluor488, 10 min. Potency, µM (top dose mostly 115 µM), usual class: inhibitors. actives 0.009% (n = 390,000); active = well fitted inhibition curve with a large enough effect in the polarisation, with a control signal flat, not every such curve was filed as active; inconclusive = small, poorly fitted or top-dose-only effect, or effect the other way, or a change in a side signal; inactive = no such curve, though single readings can be large or run the other way; the % refers to the polarisation
miR-21 reporter: miR-21 reporter, rising signal; HeLa miR-21 FLuc reporter, luciferase, 48 h; Potency, µM (titrated, usually from 38.3 µM); 340,000 tested, under 10 active; AID 2288; active = well fitted rising curve with a large enough effect; inconclusive = small, poorly fitted or top-dose-only effect; inactive = no such curve, though single readings can be large or run the other way;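 also: miR-21 action dims this reporter so a rising signal means less miR-21 action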
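Using DMEM plus 10% FBS, HeLa miR-21-FLuc cells are incubated with test compounds (final up to about 40uM) for 48 hours; firefly luciferase signal is then imaged following reagent-mediated lysis.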
GLP-1R agonist: GLP-1 receptor (human) agonism; P43220; AID 624172; HEK293 GLP-1R CRE-luciferase, luminescence, 4-6 h; cells express a hypersensitive GLP-1R form; Potency, µM (top dose mostly 45.6 µM), usual class: activators; actives 0.007% (n = 380,000)
GLP1R inv ag: acts as inverse agonist at human GLP-1 receptor. P43220. HEK293 GLP-1R CRE-luciferase, luminescence, 24 h; GLP-1R form is constitutively active. Potency, µM (series often up to 38.3 µM), hits mostly inhibitors. actives 1.6% (n = 410,000). AID 624417; also: nearly all actives have a fitted effect of over 55% in size
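HEK293 cells stably co-expressing constitutively active GLP-1R and a cAMP-responsive luciferase reporter were seeded in DMEM with 10% Nu serum, given compounds after 12 h, and incubated 24 h at 37 deg C. Luminescence was then read.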
GLP1R cytotox: cytotoxic in the GLP-1 receptor inverse agonist counter-screen. HEK293 cAMP-luciferase reporter cells, luminescence, 24 h. Potency, µM (highest dose often 38.3 µM), most hits filed as inhibitors. actives 0.13% (n = 410,000);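 also: loss of luciferase light is scored as toxicity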
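Luminescence readout: signal drop marks cytotoxicity. Plated cells grew 12 h at 37 °C, 5% CO2, received 23 nL compound for 24 h, then got luciferase reagent, read after 12 min at RT.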
Hits are given with their value; – = inactive; ? = inconclusive; · = no result given. Unless noted, calls follow the shape of the dose curve; as a rule, active = well fitted curve in the direction sought with a large enough effect; inconclusive = small, poorly fitted or top-dose-only effect, or another doubt; inactive = no such curve, though single readings can be large; an effect the other way counts as inactive or inconclusive.

SMILES	PTHR1 ag	Pin1 inh	miR-21 reporter	GLP-1R agonist	GLP1R inv ag	GLP1R cytotox
CCN(CC)S(=O)(=O)c1ccc(NC(=O)NCc2noc3ccc(C)cc23)cc1	–	–	?	·	10µM	–
Cn1c2cc(S(C)=O)sc2c2cnn(Cc3ccccc3F)c(=O)c21 (stereo not given)	·	–	·	·	·	·
O=C(CC(O)(CC(=O)OCc1ccccc1)C(=O)OCc1ccccc1)OCc1ccccc1	–	–	·	–	8.9µM	–
O=C(CC(=O)OCc1ccccc1)OCc1ccccc1	–	–	·	–	–	–
CCOC(=O)C1=CN(Cc2cccc(F)c2)S(=O)(=O)NC1c1ccc(Br)cc1F (stereo not given)	–	–	·	–	10µM	–
CCOC(=O)C1=CN(Cc2cccc(F)c2)S(=O)(=O)NC1c1ccc(F)c(Cl)c1 (stereo not given)	–	–	·	–	?	–
COc1cc2c(cc1NC(=O)C(c1ccccc1)c1ccccc1)CCCC2	–	–	–	–	2.8µM	–
COc1cc(NC(=O)C(c2ccccc2)c2ccccc2)c(C(=O)O)cc1OC	–	–	–	–	–	–
CCCCCNC(=O)c1cccc(S(=O)(=O)N2CC3(C)CC2CC(C)(C)C3)c1 (stereo not given)	–	–	·	–	6.3µM	–
CC1(C)SC(=S)N(/N=C/c2ccc(O)cc2)C1N(O)C(=O)Nc1ccc([N+](=O)[O-])cc1 (stereo not given)	–	–	–	–	2.8µM	–
Cc1ccc(/C=N/N2C(=S)SC(C)(C)C2N(O)C(=O)Nc2ccc([N+](=O)[O-])cc2)cc1 (stereo not given)	–	–	–	–	?	?
Cc1cc(N2CCCC2)nc(SCC(=O)c2ccccc2)n1	–	–	–	–	–	–
Cc1cc(N2CCC(C)CC2)nc(SCC(=O)c2ccccc2)n1	–	–	–	–	3.2µM	–
Nc1nonc1-n1nnc(C(=O)N/N=C/C=C/c2ccccc2)c1CSC1=NCCS1	–	–	–	–	7.9µM	?
Nc1nonc1-n1nnc(C(=O)N/N=C/c2c(Cl)cccc2Cl)c1CSC1=NCCS1	–	–	–	–	–	–
CCCN(CCC)Cc1c(C(=O)N/N=C/C(C)=C\c2ccccc2)nnn1-c1nonc1N	–	–	–	–	2.8µM	–
COc1ccccc1C1=Nn2c(nnc2-c2ccccc2O)SC1	·	–	·	·	·	·
CN(C)CCNc1nc2sc3c(c2c(=O)n1Cc1ccccc1)CCCCC3	–	–	–	–	1.1µM	?
COc1ccc(Nc2c3c(nc4ccc(NC(=O)/C=C/c5cc(OC)c(OC)c(OC)c5)cc24)CCCC3)cc1OC	–	–	?	·	?	?
Fc1ccc(Nc2c3c(nc4ccccc24)CCC3)cc1	–	–	?	–	?	–
COc1ccc(/C=C/C(=O)Nc2ccc3nc4c(c(Nc5ccccc5OC)c3c2)CCCC4)cc1	–	–	–	·	8.9µM	?
COc1ccc(Nc2c3c(nc4ccccc24)CCC3)cc1	–	–	?	–	1.8µM	7.9µM
COc1ccc(/C=C/C(=O)Nc2ccc3nc4c(c(Nc5ccc(OC)c(OC)c5)c3c2)CCCC4)cc1	–	–	?	·	8.9µM	4.5µM
O=C(OCC#CCSc1nnc(-c2cccc3ccccc23)o1)c1ccc(SC(F)(F)F)cc1	·	–	·	·	·	·
Cc1cc(-n2c(=O)[nH]c(=O)n(C)c2=O)ccc1Oc1ccc(S(=O)(=O)C(F)(F)F)cc1	·	·	·	–	·	·
SMILES	PTHR1 ag	Pin1 inh	miR-21 reporter	GLP-1R agonist	GLP1R inv ag	GLP1R cytotox
O=C1C[C@H](c2ccccc2Cl)N1S(=O)(=O)c1ccccc1[N+](=O)[O-]	·	–	·	·	·	·
Cc1cc(C)cc(OCC(=O)NNC(=O)c2ccccn2)c1	–	–	·	–	13µM	?
O=C(Nc1nc(Nc2cc(F)cc(F)c2)nc(NC2CCCC2)n1)OCc1ccccc1	·	–	·	·	·	·
O=C(CNC(=O)c1ccc(F)cc1)c1ccc(Cl)cc1	–	–	–	–	?	–
CO/N=C(/CNC(=O)c1ccc(F)cc1)c1ccc(Cl)cc1	–	–	–	–	8.9µM	–
CCOc1ccccc1C1NC(c2ccc3c(c2)OCO3)=CC(c2ccccc2O)N1 (stereo not given)	·	–	·	·	·	·
O=C(CS(=O)(=O)c1ccccc1)Nc1ccc(Cl)cn1	–	–	–	–	–	–
O=C(CC(c1ccccc1)c1ccccc1)Nc1ccc(Cl)cn1	–	–	–	–	5µM	?
Cc1nc2ccccc2c(N)c1C(=O)/C=C/c1ccccc1	–	–	?	–	10µM	?
Cc1ccc(NC(=O)c2ccc(NC(=O)C3CCCC3)cc2)c(C)c1	·	–	·	·	·	·
O=C(NCC1(c2ccccc2)CCCC1)c1ccccc1Br	–	–	–	–	10µM	–
O=C(NCC1(c2ccccc2)CCCC1)c1ccccc1	–	–	–	–	?	–
CSc1nc2sc3c(c2c(=O)n1-c1ccccc1C)CCCC3	–	–	–	·	4.5µM	–
Cc1cc(-n2c(C)cc(C(=O)CCl)c2C)no1	–	–	–	–	10µM	?
N#Cc1ccc(C(=O)Nc2ccccc2-c2nc3ccccc3s2)c(F)c1	?	–	–	–	–	–
Cc1ccc(NC(=O)CSc2nc3ccccc3nc2Cc2ccccc2)c(C)c1	–	–	–	–	–	–
CCn1cc(CN2CCCC(C(=O)Nc3cccc(-c4cc5ccccc5[nH]4)c3)C2)c(C)n1 (stereo not given)	–	–	–	–	11µM	?
O=C(OCc1ccccc1)N1CCC2CC1c1cc(NCCc3ccccc3)ccc12 (stereo not given)	–	–	·	–	11µM	–
COc1ccc(-c2nc3cccc(C)n3c2Nc2ccc(C)cc2)cc1	·	–	·	·	·	·
CCC(CC)C(=O)Nc1nnc(S(=O)(=O)N2CCCCCC2)s1	–	–	–	–	7.9µM	–
N=c1c(S(=O)(=O)c2ccccc2)cc2c(=O)n3ccccc3nc2n1C1CCCCC1	–	–	·	–	10µM	–
Cc1sc2ncnc(Sc3nnnn3-c3ccccc3)c2c1C	–	–	?	–	–	–
Clc1ccc(-n2nnnc2Sc2ncnc3sccc23)cc1	–	–	·	–	7.9µM	?
O=S(=O)(Nc1ccc2oc3c(c2c1)CCCC3)c1cc(Cl)ccc1Cl	–	–	–	·	11µM	–
COc1ccc(S(=O)(=O)Nc2ccc3oc4c(c3c2)CCCC4)cc1	–	–	–	·	?	–
NC(C(=O)O)C(O)c1ccc(O)c(O)c1 (stereo not given)	·	·	·	–	·	·
CC1(C)Oc2c(ccc(O)c2CN2CCOCC2)C2=C1CCCC2	–	–	·	–	7.1µM	–
O=c1c2[nH]c3ccsc3c2cnn1Cc1ccccc1F	·	–	·	·	·	·
Cc1ccc(SC[C@H](Cc2ccccc2)N2CC[C@@H](C)CCC2=O)cc1	–	–	–	–	10µM	–
